Reference: US20080124780A1, “Hybrid immobilized catalytic system with controlled permeability” (NORTHEASTERN UNIVERSITY, priority 2002, published 2008)

Test system: β-galactosidase
Settings: FIGS. 9-12 (FIG. 12: after 24 hours)

β-galactosidase [free enzyme] was tested, and the “enzyme stability (activity remaining)” value (4° C.) was 93% and the “enzyme stability (activity remaining)” value (37° C.) was 28%.

Like-named read-outs stand apart in the source and are kept apart here.
